Measured values reported in ChEMBL document CHEMBL4610026, “Design, synthesis and evaluation of protein disulfide isomerase inhibitors with nitric oxide releasing activity” (Bioorg Med Chem Lett, 2020).

Molecular target: T1, Protein disulfide-isomerase (Bos taurus, UniProt P05307)
T1 sequence (P05307 whole entry): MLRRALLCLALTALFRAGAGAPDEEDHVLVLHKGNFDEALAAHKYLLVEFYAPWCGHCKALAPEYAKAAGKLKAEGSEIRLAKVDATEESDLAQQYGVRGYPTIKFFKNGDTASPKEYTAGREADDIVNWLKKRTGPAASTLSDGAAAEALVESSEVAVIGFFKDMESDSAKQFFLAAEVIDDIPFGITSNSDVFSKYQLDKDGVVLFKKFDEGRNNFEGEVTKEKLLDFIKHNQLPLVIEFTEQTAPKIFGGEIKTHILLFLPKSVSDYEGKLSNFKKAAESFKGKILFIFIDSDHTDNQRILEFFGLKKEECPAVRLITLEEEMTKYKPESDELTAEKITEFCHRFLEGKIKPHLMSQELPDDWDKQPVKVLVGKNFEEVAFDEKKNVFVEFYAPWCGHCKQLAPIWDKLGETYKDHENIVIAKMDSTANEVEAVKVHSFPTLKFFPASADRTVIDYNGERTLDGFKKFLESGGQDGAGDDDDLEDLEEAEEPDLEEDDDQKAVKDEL
Experiment: Irreversible inhibition of bovine PDI

C#CCOC(=O)C1(C)c2[nH]c3ccccc3c2CCN1C(=O)CCl (stereo unspecified)
IC50: 1500 nM
